Test results from PubChem BioAssay AID651636 (Sanford-Burnham Center for Chemical Genomics, 2012).
Only a part is listed here, and it is no random draw. Activity calls are given as the source filed them. No stated cut-off is given here; in the data, active means inhibition above about 38%; inactive means the rest.

Protein sequences, listed by entry. Tags and fused reporters are not part of them.
UniProt P32249, whole entry: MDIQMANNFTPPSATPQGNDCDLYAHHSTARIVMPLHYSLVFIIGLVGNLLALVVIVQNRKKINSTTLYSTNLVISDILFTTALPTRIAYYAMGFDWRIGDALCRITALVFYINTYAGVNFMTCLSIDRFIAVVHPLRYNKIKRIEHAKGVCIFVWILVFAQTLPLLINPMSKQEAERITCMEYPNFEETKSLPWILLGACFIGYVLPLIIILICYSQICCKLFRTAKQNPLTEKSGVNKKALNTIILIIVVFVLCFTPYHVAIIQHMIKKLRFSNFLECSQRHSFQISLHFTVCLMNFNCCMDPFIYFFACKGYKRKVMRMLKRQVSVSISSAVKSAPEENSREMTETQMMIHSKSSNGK

target: G-protein coupled receptor 183 (Homo sapiens) (UniProt P32249); experiment: blockers of oxysterol-driven EBI2 arrestin signaling – cell-based, luminescence, 7a,25-OHC stimulation, uHTS, primary screen (AID 651636); conditions: EBI2 beta-arrestin recruitment, 7a,25-OHC stimulated, at 5 µM, stronger effect = higher value;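 further: enzyme fragment complementation signal reports receptor beta-arrestin coupling in cells; 0% = agonist plus DMSO wells and 100% = wells without agonist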

Structure (SMILES)	inhibition
CCC(=O)N(c1ccccc1)C1(COC)CCN(CCn2nnn(CC)c2=O)CC1	inactive: 6.89%
CCC(=O)N(c1ccccc1)C1(COC)CCN(CCc2cccs2)CC1	inactive: 2.76%
